According to ChEMBL document CHEMBL4513216, “Probing the Open Global Health Chemical Diversity Library for Multistage-Active Starting Points for Next-Generation Antimalarials” (ACS Infect Dis, 2020):

System: HepG2
Assay: Toxicity liver stage against HepG2, at 10uM
Type: cell-based
Design: test concentration 10 uM, cell line HepG2-A16-CD81EGFP
Conditions: human, hepg2, 10 µM
Summary of the method: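 Uninfected HepG2-A16-CD81EGFP cells, 3 × 10^3 per well, 1536-well, plated on prespotted compound at 10 μM final, parasite-free screening media added to match infected plates; puromycin 10 μM positive, DMSO 0.5% negative; run in parallel with 48 h PbLuc assay at 37 °C, 5% CO2; viability by CellTiter-Glo luminescence, normalized to controls.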

| Compound | INHIBITION |
| --- | --- |
| COc1cc(NC2CCNCC2)cc(OC)c1 | -5.3% |
| Cc1nnc(C(C)N2CCC(Nc3ccccc3C)CC2)o1 (stereo not given) | 3.96% |
| CC1(C)CN(C2(CNC(=O)c3cnns3)CCCCC2)CCO1 | 19.5% |
| Cc1cccc(NC2CCN(Cc3nnc(C4CC4)o3)CC2)c1 | -8.37% |
| CCCN1CCC(Nc2ccc(OC)c(OC)c2)CC1 | 0.124% |
| Brc1ccccc1NC1CCNCC1 | -2.33% |
| COc1ccc(CN2CCC(Nc3ccc(Br)cc3)CC2)c(OC)c1 | 2.31% |
| COc1cccc(NC2CCNCC2)c1 | -3.35% |
| Fc1ccccc1NC1CCNCC1 | -5.6% |
| COc1ccccc1NC1CCN(Cc2nc(C)ccc2O)CC1 | 0.719% |

Only a part of the results on these compounds is given; other tests are left out.
